Assay results as given in patent US20230233555A1 (AbbVie Inc., priority 2022, published 2023).

System: bacteria
Settings: in vitro

CC[C@@H]1CN(C(=O)NCC(F)(F)F)C[C@@H]1c1cnc2cnc3[nH]ccc3n12 [upadacitinib, (3S,4R)-3-Ethyl-4-(3H-imidazo[1,2-a]pyrrolo[2,3-e]pyrazin-8-yl)-N-(2,2,2-trifluoroethyl)pyrrolidine-1-carboxamide hydrate (2:1)]
Genotoxicity, bacterial mutagenicity (Ames): tested negatively
